Several values for one entry are separate records, joined by “and”; a condition that tells them apart may be missing. Identical values can stand only once. Only a part is listed here, and it is no random draw. Inconclusive results are not listed. Activity calls are given as the source filed them. The calls were made as follows, unless noted: active = hit-call score of the fitted dose curve at least 0.9, where 1 is the maximum; inactive = score below 0.9.
Experiments:
[1] = CCTE_Mundy_HCI_hNP1_CellTiter: CCTE's Cell Titer-Glo 2 Assay in human neuroprogenitor cells for Viability, Mundy Lab (AID 2284241; active = hit-call score of the fitted dose curve at least 0.9, where 1 is the maximum;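 as to AC50: a hit is a drop in ATP luminescence versus DMSO meaning reduced viability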)
In short: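 Viability read as luminescent ATP content (CellTiter-Glo, 30 min room temperature) twenty-four hours after dosing, relative to DMSO. Cells: WA09-derived hNP1 neuroprogenitors on poly-L-ornithine/laminin, plated 40 to 44 hours before chemical.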

[2] = CCTE_Mundy_HCI_Cortical_Synap_Neur_Matur_NeuronCount: CCTE's Synaptogenesis and Neurite Maturation Assay in rat cortical cells for Neuron Count, Mundy Lab (AID 2284242; active = hit-call score of the fitted dose curve at least 0.9, where 1 is the maximum;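 also: hits reduce neuron count versus DMSO baseline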)
In short: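 Rat primary cortical cells, AraC added at DIV 5, dosed with media change from DIV 7 to DIV 12. Fixed, Hoechst-stained and immunolabelled for MAP2 and synaptophysin; neuron number counted by high-content imaging, loss fitted versus DMSO.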

[3] = IUF_NPC2c_oligodendrocyte_migration_120hr: Leibniz Research Institute for Environmental Medicine (IUF) 120-hour Neural Progenitor Cell Migration Assay for Oligodendrocyte Migration (NPC2c) (AID 2284297);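 also: O4-positive oligodendrocyte migration distance divided by radial glia migration distance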
In short: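 Primary hNPC spheres migrating on extracellular matrix, exposed five days to a 7-point dilution series with solvent control. Oligodendrocyte migration was scored by high-content imaging of O4 immunostaining and expressed relative to radial glia distance.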

[4] = IUF_NPC2a_radial_glia_migration_120hr: Leibniz Research Institute for Environmental Medicine (IUF) 120-hour Neural Progenitor Cell Migration Assay for Radial Glia Migration (NPC2a) (AID 2284298)
In short: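 In this multiplexed test, fetal hNPC spheres migrate radially on poly-D-lysine/laminin in N2 medium (37C, 5% CO2, pH 7.2-7.6) under continuous compound exposure over five days. Migration is scored at 120 h from automated Hoechst nuclear imaging.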

[5] = IUF_NPC2a_radial_glia_migration_72hr: Leibniz Research Institute for Environmental Medicine (IUF) 72-hour Neural Progenitor Cell Migration Assay for Radial Glia Migration (NPC2a) (AID 2284299)
In short: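 Human fetal neural progenitor spheres (0.3 mm) plated on poly-D-lysine/laminin in N2 differentiation medium and exposed from day 0 at 7 concentrations; radial glia migration distance from sphere edge measured at 72 h on brightfield images, mean of four directions, vs DMSO.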

[6] = IUF_NPC2b_neuronal_migration_120hr: Leibniz Research Institute for Environmental Medicine (IUF) 120-hour Neural Progenitor Cell Migration Assay for Neuron Migration (NPC2b) (AID 2284300)
In short: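 Neurons identified by TUBB3 immunostaining and Hoechst nuclei; migration distance measured automatically on fixed wells at 120 h, normalized to glia migration. Exposure spanned five days of differentiation in N2 medium, seven test concentrations.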

[7] = read-out: Collagen I, COL1A1 (gene 1277); experiment: BSK_MyoF_CollagenI: BioMAP Diversity Plus: MyoF Assay for Collagen I Biomarker Activity (AID 2284238); settings: primary human lung fibroblasts
In short: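 Multiplexed primary human lung fibroblast system; Collagen I measured by ELISA at 24 h post-dose. Increases are referenced to DMSO.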

[8] = read-out: Collagen III, COL3A1 (gene 1281); experiment: BSK_MyoF_CollagenIII: BioMAP Diversity Plus: MyoF Assay for Collagen III Biomarker Activity (AID 2284239); settings: primary human lung fibroblasts
In short: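 Compounds are added to primary human lung fibroblasts and left for 24 hours. Collagen III is then quantified by ELISA. Analysis takes DMSO as baseline and fits increases in signal.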

[9] = read-out: Interleukin 17F (IL17F), IL17F (gene 112744); experiment: BSK_BT_xIL17F: BioMAP Diversity Plus: BT Assay for Interleukin 17F (IL17F) Biomarker Activity (AID 2284243); settings: primary human B cells with PBMC
In short: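 Measures secreted IL-17F from a human B cell plus PBMC co-culture at 24 h post-dose by Luminex xMAP, with DMSO defining baseline activity.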

[10] = read-out: Actin alpha 1 (ACTA1), ACTA1 (gene 58); experiment: BSK_MyoF_ACTA1: BioMAP Diversity Plus: MyoF Assay for Actin alpha 1 (ACTA1) Biomarker Activity (AID 2284244); settings: primary human lung fibroblasts
In short: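 Human lung fibroblast (MyoF system) cultures dosed with test chemical; alpha-SMA measured by ELISA 24 h after dosing, normalized to DMSO control. Cytotoxicity tracked in parallel cultures by SRB total-protein staining.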

[11] = read-out: Basic fibroblast growth factor (bFGF), FGF2 (gene 2247); experiment: BSK_MyoF_bFGF: BioMAP Diversity Plus: MyoF Assay for Basic fibroblast growth factor (bFGF) Biomarker Activity (AID 2284246); settings: primary human lung fibroblasts
In short: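 Human lung fibroblast cultures were dosed and measured 24 h later in 96-well format. bFGF biomarker levels quantified by ELISA, with activity fitted in the positive direction against DMSO.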

[12] = read-out: Collagen IV, COL4A1 (gene 1282); experiment: BSK_MyoF_CollagenIV: BioMAP Diversity Plus: MyoF Assay for Collagen IV Biomarker Activity (AID 2284247); settings: primary human lung fibroblasts
In short: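 Primary human lung fibroblasts (MyoF system) dosed 24 h; Collagen IV measured by ELISA. Activity fitted in positive direction against DMSO; cytotoxicity tracked by SRB total-protein staining in parallel cultures.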

[13] = read-out: Plasminogen activator inhibitor-1 (PAI1), SERPINE1 (gene 5054); experiment: BSK_MyoF_PAI1: BioMAP Diversity Plus: MyoF Assay for Plasminogen activator inhibitor-1 (PAI1) Biomarker Activity (AID 2284256); settings: primary human lung fibroblasts;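 also: PAI-1 protein level measured by ELISA in fibroblast cultures; PAI-1 read 24 h after compound addition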
In short: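 Activity reflects increased PAI-1, determined by ELISA and compared with DMSO, in human lung fibroblasts treated for 24 h.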

[14] = read-out: Interleukin-8 (IL8), CXCL8 (gene 3576); experiment: BSK_MyoF_IL8: BioMAP Diversity Plus: MyoF Assay for Interleukin-8 (IL8) Biomarker Activity (AID 2284261); settings: primary human lung fibroblasts
In short: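 In this multiplexed primary-cell system, fibroblasts from human lung are treated with chemicals, and IL-8 is detected by ELISA at 24 h, with DMSO serving as the negative reference.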

Decorin, DCN (gene 1634) = experiment: BSK_MyoF_Decorin: BioMAP Diversity Plus: MyoF Assay for Decorin Biomarker Activity (AID 2284265); settings: primary human lung fibroblasts
In short: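 Lung fibroblast cultures, 24 h chemical exposure. Decorin by ELISA, positive fitting direction, DMSO baseline.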

[15] = BSK_MyoF_SRB: Viability Assessment in the BioMAP Diversity Plus: MyoF Assay (AID 2284267); settings: primary human lung fibroblasts;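 also: total protein by SRB absorbance in parallel cultures as cytotoxicity measure; cells assessed 24 h after compound addition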
In short: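 Human lung fibroblasts, 24 h after chemical dosing; total protein measured by 0.1% sulforhodamine B staining after 10% TCA fixation, read at 560 nm, fitted relative to DMSO baseline.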

[16] = read-out: Matrix Metallopeptidase 1 (MMP1), MMP1 (gene 4312); experiment: BSK_MyoF_MMP1: BioMAP Diversity Plus: MyoF Assay for Matrix Metallopeptidase 1 (MMP1) Biomarker Activity (AID 2284268); settings: primary human lung fibroblasts
In short: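 MMP1 measured by ELISA 24 h after dosing primary human lung fibroblasts; cytotoxicity checked in parallel cultures by sulforhodamine B total-protein staining read at 560 nm.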

[17] = read-out: TIMP metallopeptidase inhibitor 1 (TIMP1), TIMP1 (gene 7076); experiment: BSK_MyoF_TIMP1: BioMAP Diversity Plus: MyoF Assay for TIMP metallopeptidase inhibitor 1 (TIMP1) Biomarker Activity (AID 2284269); settings: primary human lung fibroblasts
In short: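 TIMP-1 levels were determined by ELISA in human lung fibroblasts treated for 24 h. DMSO served as negative control and baseline for upward curve fitting.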

[18] = read-out: Interleukin 2 (IL2), IL2 (gene 3558); experiment: BSK_BT_xIL2: BioMAP Diversity Plus: BT Assay for Interleukin 2 (IL2) Biomarker Activity (AID 2284245); settings: primary human B cells with PBMC
In short: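 Human B cell plus PBMC co-culture, 24 h after chemical dosing; secreted IL-2 quantified by Luminex xMAP multiplex, fitted for signal gain against DMSO baseline.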

[19] = CCTE_Mundy_HCI_hNP1_Casp3_7: CCTE's Caspase-Glo 3/7 Assay in human neuroprogenitor cells for Apoptosis, Mundy Lab (AID 2284240)
In short: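 Luminescent caspase-3/7 readout, 26.5 h post-dose, in human neural progenitor cells from WA09 embryonic stem cells. Cells grew 40–44 h at 37 °C, 5% CO2 before chemical addition. Activity analysed as signal increase over DMSO baseline.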

Measured: AC50

CC(C)OP(=S)(OC(C)C)SCCNS(=O)(=O)c1ccccc1
active: [1] 65.7 µM and 41.5 µM | [2] 50 µM and 89.7 µM | [4] 52.2 µM
inactive: [3] | [5] | [6]

O=[N+]([O-])c1ccc([N+](=O)[O-])cc1
active: [9] 30.8 µM
not listed: [1] | [2] | [3] | [4] | [5] | [6] | [18] | [19]
inactive: all other assays above

O=C(Cl)Oc1ccccc1
not listed: [1] | [2] | [3] | [4] | [5] | [6] | [19]
inactive: all other assays above

CC(C)OP(=O)(OC(C)C)SCCNS(=O)(=O)c1ccccc1
inactive: [19] | [1] | [3] | [4] | [5] | [6]

— PubChem BioAssay (EPA / NIEHS)
